In ChEMBL document CHEMBL1155961, “Novel 4-aryl-pyrido[1,2-c]pyrimidines with dual SSRI and 5-HT1A activity: part 2” (Eur J Med Chem, 2009):

Assays:
Mus musculus [1] = species on record: Mus musculus; conditions: Swiss albino, 0.1 mg/kg
Mus musculus [2] = species on record: Mus musculus; conditions: Swiss albino, 0.1 mg/kg; remark: listed apart in the source
Mus musculus [3] = species on record: Mus musculus; conditions: Swiss albino, 0.1 mg/kg; remark: listed apart in the source
Mus musculus [4] = species on record: Mus musculus; conditions: Swiss albino, 0.1 mg/kg; remark: listed apart in the source
Mus musculus [5] = species on record: Mus musculus; conditions: Swiss albino, 5 mg/kg
Mus musculus [6] = species on record: Mus musculus; conditions: Swiss albino, 5 mg/kg; remark: listed apart in the source
Mus musculus [7] = species on record: Mus musculus; conditions: Swiss albino, 0.1 mg/kg; remark: listed apart in the source
Mus musculus [8] = species on record: Mus musculus; conditions: Swiss albino, 0.1 mg/kg; remark: listed apart in the source
Mus musculus [9] = species on record: Mus musculus; conditions: Swiss albino, 5 mg/kg; remark: listed apart in the source
Mus musculus [10] = species on record: Mus musculus; conditions: Swiss albino, 0.1 mg/kg; remark: listed apart in the source
Mus musculus [11] = species on record: Mus musculus; conditions: Swiss albino, 0.1 mg/kg; remark: listed apart in the source
Mus musculus [12] = species on record: Mus musculus; conditions: Swiss albino, 5 mg/kg; remark: listed apart in the source
Mus musculus [13] = species on record: Mus musculus; conditions: Swiss albino, 5 mg/kg; remark: listed apart in the source

Compound | deltaT (Mus musculus [1]) | deltaT (Mus musculus [2]) | deltaT (Mus musculus [3]) | deltaT (Mus musculus [4]) | deltaT (Mus musculus [5]) | deltaT (Mus musculus [6]) | deltaT (Mus musculus [7]) | deltaT (Mus musculus [8]) | deltaT (Mus musculus [9]) | deltaT (Mus musculus [10]) | deltaT (Mus musculus [11]) | deltaT (Mus musculus [12]) | deltaT (Mus musculus [13])
COc1ccccc1N1CCN(CCN(C(=O)C2CCCCC2)c2ccccn2)CC1 | 0.1 °C | 0.1 °C | 0.2 °C | 0.2 °C |  |  |  |  |  |  |  |  | 
CCCN(CCC)C1CCc2cccc(O)c2C1 (stereo not drawn) [8-OH-DPAT] |  |  |  |  | -0.2 °C | -1.5 °C | -0.2 °C | -0.1 °C | -0.7 °C | -0.1 °C | -0.1 °C | -1.2 °C | -0.8 °C
